## Binding of CDR-mutated scFvs to a peptide of the spike HR2 region

The target is the same throughout: PDVDLGDISGINAS, from the HR2 region of SARS-CoV-2 spike.

Ab-14 is the parent antibody, in scFv form: VH, then a (GGGGS)3 linker, then VL. The light chain is unchanged in all variants.
VH: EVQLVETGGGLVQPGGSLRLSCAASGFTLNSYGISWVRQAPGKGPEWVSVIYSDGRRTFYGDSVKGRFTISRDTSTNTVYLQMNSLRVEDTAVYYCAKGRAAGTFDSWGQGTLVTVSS
VL: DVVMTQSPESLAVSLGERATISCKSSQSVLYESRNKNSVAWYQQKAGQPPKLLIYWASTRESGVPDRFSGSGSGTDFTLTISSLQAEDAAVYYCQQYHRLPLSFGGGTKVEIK

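The starting antibody came from a phage panning campaign against this peptide. The variants were designed computationally from a first round of random CDR variants and then made and measured. Group labels follow the data file (Ctrl: baseline library sampled from a position-specific scoring matrix, with some repeated check sequences; Rand: our label for a block that the file lists under HC and that is probably the random mutants of the ten best first-round binders; En: ensemble of fine-tuned language models; GP: Gaussian process model; GPLM: also part of the Gaussian process libraries; HC: hill climbing; Gen: genetic algorithm; Gibbs: Gibbs sampling; a sequence that several methods proposed may carry one label only). AlphaSeq pools MATa yeast showing the antibodies with MATalpha yeast showing the peptide. The frequency of each diploid, read from paired DNA barcodes, reflects how well the two displayed proteins bind. A regression on co-assayed BCL2-family reference pairs converts the normalised counts of each replicate to an apparent Kd. Each pool was mated in six replicate cultures.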

The parent's heavy chain CDRs are GFTLNSYGIS, VIYSDGRRTFYGDSVK, GRAAGTFDS; each variant's own CDRs replace them letter for letter.
The Kd shown is the geometric mean over detected replicates; a lower Kd is a better binder.
An entry "not detected" has no value in the source: the pair was not observed among the diploids in any replicate. This suggests poor binding but is not conclusive.
The range of this assay differs from that of the first round, and the authors advise against merging the two.
Three control strains display no target. For all heavy chain designs, 1% of the pairings with them gave a signal, with a median of 120 nM and one signal in twenty below 7.0 nM, so weak values seen in few replicates may be background. For each scFv, signals with the empty controls are counted beside the result.
The parent sequence was in this pool as ten entries: three were never detected, three once, and four in most replicates, with averages from 2.2 nM to 240 nM.
The authors averaged sequences with at least three values out of six and counted those with two or fewer as poor binders.

CDR-H1,CDR-H2,CDR-H3,group,apparent Kd,replicates with signal,control signals
GCTLNQYGIS,VIYSDGRRTFYGDSVK,GRAAGTGDS,Ctrl,not detected,0 of 6,0 of 18
GFDLNEYGIS,VIYADGMRTFYADNVK,GNVAGTFDQ,En_HC,4.2 nM,6 of 6,0 of 18
GFELNSYGIS,VIYSDGRRTFYADSVK,GRAAGTFDK,GPLM_Gibbs,18 nM,6 of 6,1 of 18
GFNLDEYGIS,VIYADGRRTFYADSVK,GEIAGTFDF,En_HC,330 pM,6 of 6,0 of 18
GFELNNYGIS,VIYSDGRRTFYGDSVK,GEAAGTFDS,GP_Gen,5.2 nM,6 of 6,1 of 18
KFSLNSYGIS,VIYSDGRRTFYGDSVV,GRASGTFDQ,Ctrl,not detected,0 of 6,0 of 18
GFTLNSYGIS,VIYSDGRRTFYSDSVK,GQAGGTFDL,GPLM_HC,11 nM,6 of 6,1 of 18
GFTLNEYGIS,VIYSDGLRTWYGDSVK,GRAAGTFDS,Ctrl,2.7 nM,6 of 6,0 of 18
GFSLDEYGIS,VIYADGRRTFYADSVK,GNVAGTFDT,En_HC,400 pM,6 of 6,0 of 18
GFELNEYGIS,VIYSDGRRTFYGDSVK,GRMAGTFDS,GP_Gen,not detected,0 of 6,0 of 18
GFDLNEYGIS,VIYADGRRTFYSDSVK,GTVAGTFDS,En_HC,340 pM,6 of 6,0 of 18
GFDLDSYGIS,VIYADGRRSAYHDSVK,GQLGGVSFV,En_Gibbs,not detected,0 of 6,1 of 18
GFVLNSYGIS,VIYSDGRRTFYADSVK,GQVAGTFDS,GPLM_Gen,1.3 nM,6 of 6,0 of 18
GFELNEYGIS,VIYSDGRRTFYDDSVK,GRTAGTFDS,GP_Gen,3.5 nM,6 of 6,0 of 18
GFNLNSYGIS,VIYSDGRRTFYADSVK,GNVAGTFDS,GPLM_Gibbs,850 pM,6 of 6,4 of 18
GFTLNSYGIS,VIYSDGRRTFYADDVK,GRAAGTFDT,GP_Gibbs,7.3 nM,6 of 6,0 of 18
GMDLNEYGIS,VIYADGVRTKYANSVK,NGLVVNGKL,En_Gibbs,not detected,0 of 6,0 of 18
GFSLNDYGIS,VIYSDGRRTFYHDEVK,GRTAGTFDS,GP_Gibbs,20 nM,4 of 6,0 of 18
GFTLNQYGIS,VIYSDGKRTFYSDSVK,GRTAGTFDS,GPLM_HC,460 pM,6 of 6,0 of 18
GFTLNQYGIS,VIYSDGRRTFYSDSVK,GRAAVTFDK,GP_HC,not detected,0 of 6,0 of 18
GFRLNEYGIS,VIYSDGRRTFYGDSVK,GRAAGTFDL,GP_HC,6.0 nM,6 of 6,0 of 18
GFDLNSYGIS,VIYSDGRRTFYADSVK,GQVAGTFDS,GPLM_Gen,660 pM,6 of 6,3 of 18
GFTLNSYGIS,VIYSDGRRTFYGDSVK,GREAGTFDG,Ctrl,2.8 nM,1 of 6,0 of 18
GFDLNEYGIS,VIYADGVRTYYADSVK,GNVAGTFDQ,En_Gen,360 pM,6 of 6,0 of 18
GFDLDEYGIS,VIYADGRRTFYADSVK,GSNAGTFDI,En_HC,320 pM,6 of 6,0 of 18
KFDLNSYGIS,VIYSDGRRTFYGDSVK,GREAGTFDS,GP_Gen,6.2 nM,2 of 6,0 of 18
GFDLNEYGIS,VIYADGVRQAYADSVK,GNVAGTFDL,En_Gen,440 pM,6 of 6,0 of 18
GFTLNSYSIS,VIYADGRRTFYGDDVK,GRAAGTFLS,Ctrl,not detected,0 of 6,0 of 18
GFNLNSYGIS,VIYSDGRRTFYGDPVK,GKQAGTFDS,GP_Gibbs,13 nM,3 of 6,0 of 18
GFTLDSYGIH,VIYSDGRRTFYGDSVK,GPAAGTFDL,Ctrl,98 nM,1 of 6,0 of 18
GFTLDSYGIS,VIYSDGRRTFYTDSVK,GRAAGTFDR,GP_HC,1.5 nM,3 of 6,0 of 18
GFDLDEYGIS,VIYADGMRTAYADSVK,GNEAGTFDQ,En_Gen,240 pM,6 of 6,1 of 18
GFDLNEYGIS,VIYADGMRTAYADSVK,GNEAGTFDT,En_Gen,not detected,0 of 6,0 of 18
FNIGEDYGIS,VIYADGLRTAYENSVK,GEVAGTFDS,En_Gibbs,22 nM,6 of 6,1 of 18
QFTLNSYGIS,VIYSDGRRTAYIDSVK,GRYAGTFDS,Ctrl,16 nM,6 of 6,0 of 18
GFTLNSYGIS,VIYSDGRRTFYDDSCK,GQLAGTFDS,Rand,120 nM,2 of 6,0 of 18
GFDLDEYGIS,VIYADGMRTAYSDSVK,GEVAGTFDA,En_Gen,1.5 nM,5 of 6,0 of 18
GKSLNSYGIS,VIYSDGRRTAYADSVK,GRAAGTFDS,GP_Gibbs,not detected,0 of 6,0 of 18
GFSLNSYGIS,VIYSDGRRTFYADSVK,GKQAGTFDS,GPLM_Gen,600 pM,6 of 6,1 of 18
GEHLASYGIS,VIYSDGRRTFYGDSVK,GQAAGTFDS,Ctrl,not detected,0 of 6,0 of 18
GFDLGEYGIS,VIYADGRRKGYSDAVK,GINVINKTV,En_Gibbs,not detected,0 of 6,0 of 18
GFTLESYGIS,VIYSDGMRTFYVDSVK,GRTAGTFDS,GP_Gibbs,68 nM,2 of 6,0 of 18
GFDLNEYGIS,VIYADGRRTFYSDSVK,GETAGTFIQ,En_HC,15 nM,6 of 6,1 of 18
GFTLLSYGIS,VIYSDGRRTFYGDSVK,GRAAGNFDS,Ctrl,not detected,0 of 6,0 of 18
GFTLNSYGIS,VIYSDGRRTFYKDKVK,GRAAGTFDS,Ctrl,110 nM,2 of 6,0 of 18
GFTLNSHGRS,VIYSDGRRTFYGDSVK,GRASGTFDS,Ctrl,1.6 µM,1 of 6,0 of 18
EFDLNEYGIS,VIYADGHRSFYIDTVK,GQVAGIFNM,En_Gibbs,not detected,0 of 6,0 of 18
GFSLNSYGIS,VIYSDGRRTFYADKVK,GEAAGTFDS,GPLM_Gen,8.7 nM,6 of 6,0 of 18
GFNLNEYGIS,VIYFDGLRTQYGDSVK,GRAAGHFDA,Ctrl,not detected,0 of 6,1 of 18
GFDLNEYGIS,VIYADGMRRAYAENFK,GVTGGGLHI,En_Gibbs,not detected,0 of 6,0 of 18
GFDLNEYGIS,VIYADGMRTFYTDSVK,GEVAGTFDV,En_Gen,630 pM,6 of 6,0 of 18
GFDLDEYGIS,VIYADGMRTAYADSVK,GNVAGTFDE,En_Gen,200 pM,6 of 6,0 of 18
GFTLNEYGIS,VITSDGRRTFYTDSVK,GRFAGTFDS,Rand,92 nM,1 of 6,0 of 18
GFSLNSYGIS,VIYSDGRRTFYQDSVK,GKAAGTFDS,GPLM_Gen,3.6 nM,6 of 6,1 of 18
GFELNEYGIS,VIYSDGRRTFYVDSVK,GRTAGTFDS,GPLM_HC,1.1 nM,6 of 6,0 of 18
GFTLNNYGIS,VIYSDGRRTFYDDSVK,GQVAGTFDS,GP_HC,32 nM,2 of 6,0 of 18
GFDLNEYGIS,VIYADGARTFYADSVK,GNLAGTFDQ,En_HC,400 pM,6 of 6,1 of 18
GFTLNQYGIS,VIYSDGRVTFYSDSVK,GWAAGFFDS,Rand,not detected,0 of 6,0 of 18
GFDLNSYGVS,VIYSDGRRTFYGDSVK,WRAAGAFNS,Rand,19 µM,1 of 6,1 of 18
GFELNSYGIS,VIYADGRRTFYGDQVK,GRAAGTFKS,GP_HC,not detected,0 of 6,0 of 18
GFTLNSYGIS,VIYSDGRRTFYGDSVK,GYAAGTFSS,Ctrl,not detected,0 of 6,0 of 18
GFDLNEYGIS,VIYADGSRTAYADDVK,GNNAGTFDV,En_Gen,270 pM,6 of 6,0 of 18
GFKLNSYGIS,VIYSDGRRTFYGDSVK,QRAAGTVDS,Ctrl,not detected,0 of 6,0 of 18
GFTLNSYGIS,VIYSDGRRTYYQDSVK,GRQAGYFDL,Ctrl,not detected,0 of 6,0 of 18
GFDLNEYGIS,VIYADGKRKAYADSVK,GTNAGTFDV,En_Gen,180 pM,6 of 6,0 of 18

A selection of 4 entries from above:

CDR-H1,CDR-H2,CDR-H3,group,apparent Kd,replicates with signal,control signals
GFTLLSYGIS,VIYSDGRRTFYGDSVK,GRAAGNFDS,Ctrl,not detected,0 of 6,0 of 18
GFDLNEYGIS,VIYADGRRTFYSDSVK,GTVAGTFDS,En_HC,340 pM,6 of 6,0 of 18
GEHLASYGIS,VIYSDGRRTFYGDSVK,GQAAGTFDS,Ctrl,not detected,0 of 6,0 of 18
GFSLNSYGIS,VIYSDGRRTFYADKVK,GEAAGTFDS,GPLM_Gen,8.7 nM,6 of 6,0 of 18

Source: Li et al. 2023 (doi:10.1038/s41467-023-39022-2), MIT Lincoln Laboratory and A-Alpha Bio; data file from the FLAb repository.